Sequences of proteins named here, by UniProt entry; tags and fusion partners are left off.
UniProt P51531, whole entry: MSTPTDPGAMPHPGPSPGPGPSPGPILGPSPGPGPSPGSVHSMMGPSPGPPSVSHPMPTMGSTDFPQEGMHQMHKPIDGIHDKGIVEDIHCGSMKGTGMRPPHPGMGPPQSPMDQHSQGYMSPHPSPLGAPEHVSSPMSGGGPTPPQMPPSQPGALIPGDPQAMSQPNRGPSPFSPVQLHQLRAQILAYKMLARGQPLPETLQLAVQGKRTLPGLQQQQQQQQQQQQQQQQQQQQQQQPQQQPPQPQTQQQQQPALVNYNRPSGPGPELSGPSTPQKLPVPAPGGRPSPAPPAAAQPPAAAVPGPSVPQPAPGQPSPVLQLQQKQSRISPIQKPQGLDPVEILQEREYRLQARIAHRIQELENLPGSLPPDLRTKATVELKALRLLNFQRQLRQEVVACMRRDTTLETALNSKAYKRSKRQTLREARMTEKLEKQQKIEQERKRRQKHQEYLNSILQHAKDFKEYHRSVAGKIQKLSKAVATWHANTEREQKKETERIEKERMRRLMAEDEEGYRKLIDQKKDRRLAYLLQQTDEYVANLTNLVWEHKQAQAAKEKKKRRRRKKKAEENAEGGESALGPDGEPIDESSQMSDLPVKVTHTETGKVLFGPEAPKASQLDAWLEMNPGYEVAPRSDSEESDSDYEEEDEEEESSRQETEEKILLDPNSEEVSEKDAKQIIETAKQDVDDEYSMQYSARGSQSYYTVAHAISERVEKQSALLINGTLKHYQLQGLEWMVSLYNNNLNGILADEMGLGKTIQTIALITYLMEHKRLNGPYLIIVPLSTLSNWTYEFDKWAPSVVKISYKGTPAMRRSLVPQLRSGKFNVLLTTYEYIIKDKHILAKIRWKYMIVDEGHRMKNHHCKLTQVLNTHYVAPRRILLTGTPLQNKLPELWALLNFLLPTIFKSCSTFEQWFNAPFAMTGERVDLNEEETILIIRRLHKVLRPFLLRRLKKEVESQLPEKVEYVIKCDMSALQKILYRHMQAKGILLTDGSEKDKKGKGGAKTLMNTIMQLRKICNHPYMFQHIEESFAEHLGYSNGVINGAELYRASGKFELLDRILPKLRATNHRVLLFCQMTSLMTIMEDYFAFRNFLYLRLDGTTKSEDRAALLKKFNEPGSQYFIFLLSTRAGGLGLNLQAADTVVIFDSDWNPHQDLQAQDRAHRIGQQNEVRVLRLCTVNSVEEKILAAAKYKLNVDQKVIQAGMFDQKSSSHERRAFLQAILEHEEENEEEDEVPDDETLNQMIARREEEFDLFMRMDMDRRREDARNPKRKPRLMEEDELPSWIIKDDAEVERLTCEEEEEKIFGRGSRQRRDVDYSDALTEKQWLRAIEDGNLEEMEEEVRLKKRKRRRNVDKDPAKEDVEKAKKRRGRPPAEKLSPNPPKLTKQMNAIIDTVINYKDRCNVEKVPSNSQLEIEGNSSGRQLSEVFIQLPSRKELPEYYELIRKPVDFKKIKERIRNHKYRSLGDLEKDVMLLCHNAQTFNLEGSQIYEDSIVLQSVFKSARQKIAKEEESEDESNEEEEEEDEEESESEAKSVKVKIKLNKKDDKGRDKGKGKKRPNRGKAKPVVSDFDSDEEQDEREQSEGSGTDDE
UniProt P51532, whole entry: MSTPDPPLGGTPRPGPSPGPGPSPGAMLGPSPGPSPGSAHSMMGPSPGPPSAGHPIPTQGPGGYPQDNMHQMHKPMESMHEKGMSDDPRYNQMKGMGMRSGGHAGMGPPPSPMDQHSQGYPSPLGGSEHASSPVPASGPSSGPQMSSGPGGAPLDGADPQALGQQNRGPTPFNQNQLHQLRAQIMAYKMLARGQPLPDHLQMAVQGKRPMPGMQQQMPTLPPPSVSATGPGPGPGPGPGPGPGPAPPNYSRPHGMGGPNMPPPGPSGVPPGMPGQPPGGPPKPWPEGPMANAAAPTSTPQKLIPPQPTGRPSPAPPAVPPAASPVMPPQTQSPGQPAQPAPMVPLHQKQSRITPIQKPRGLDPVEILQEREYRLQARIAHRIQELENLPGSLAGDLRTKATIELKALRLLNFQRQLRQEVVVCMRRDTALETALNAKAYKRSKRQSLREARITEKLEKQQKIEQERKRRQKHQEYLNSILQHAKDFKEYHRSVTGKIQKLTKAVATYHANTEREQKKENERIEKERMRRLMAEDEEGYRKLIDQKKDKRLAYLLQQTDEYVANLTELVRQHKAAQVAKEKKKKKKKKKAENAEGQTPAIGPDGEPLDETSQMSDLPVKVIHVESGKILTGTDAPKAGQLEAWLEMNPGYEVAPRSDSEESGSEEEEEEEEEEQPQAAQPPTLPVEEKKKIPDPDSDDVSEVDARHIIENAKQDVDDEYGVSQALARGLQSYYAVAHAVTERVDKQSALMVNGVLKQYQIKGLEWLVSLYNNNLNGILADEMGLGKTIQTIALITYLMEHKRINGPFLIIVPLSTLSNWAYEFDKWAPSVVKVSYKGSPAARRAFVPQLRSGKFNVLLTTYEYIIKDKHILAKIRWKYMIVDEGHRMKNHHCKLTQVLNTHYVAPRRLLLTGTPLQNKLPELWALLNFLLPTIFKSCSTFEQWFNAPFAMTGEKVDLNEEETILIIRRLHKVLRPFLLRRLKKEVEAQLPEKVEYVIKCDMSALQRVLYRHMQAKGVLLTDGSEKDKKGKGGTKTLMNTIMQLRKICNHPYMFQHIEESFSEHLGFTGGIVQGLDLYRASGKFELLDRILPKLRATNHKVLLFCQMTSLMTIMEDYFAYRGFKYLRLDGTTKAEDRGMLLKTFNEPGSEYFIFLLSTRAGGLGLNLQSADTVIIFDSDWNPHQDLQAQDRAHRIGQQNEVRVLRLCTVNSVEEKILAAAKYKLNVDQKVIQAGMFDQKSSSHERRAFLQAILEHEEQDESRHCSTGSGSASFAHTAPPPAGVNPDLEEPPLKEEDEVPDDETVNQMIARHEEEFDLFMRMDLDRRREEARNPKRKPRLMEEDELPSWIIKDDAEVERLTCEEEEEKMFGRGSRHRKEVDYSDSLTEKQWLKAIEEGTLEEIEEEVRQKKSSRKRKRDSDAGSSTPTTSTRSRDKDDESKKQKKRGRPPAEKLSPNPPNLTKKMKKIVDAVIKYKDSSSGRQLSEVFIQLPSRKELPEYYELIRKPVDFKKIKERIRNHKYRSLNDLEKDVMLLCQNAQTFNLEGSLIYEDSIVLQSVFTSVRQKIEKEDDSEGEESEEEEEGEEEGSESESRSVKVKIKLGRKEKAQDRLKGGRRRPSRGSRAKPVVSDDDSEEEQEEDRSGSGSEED

In patent publication US12624044B2, “SMARCA degraders and uses thereof” (Kymera Therapeutics, Inc., priority 2019, dated 2026):

Columns and labels:
SMARCA2 [1] = molecular target: T1, SMARCA2 (Homo sapiens, UniProt P51531); assay: MSD SMARCA2 degradation in A549 cell line; conditions: for SMARCA2 MSD A549 degradation 24 h: Average Dmax %: A549 cells; for DC50: read-out: SMARCA2 MSD A549 degradation 24 h: Average external-Abs DC50, A549 cells
Protocol: Cells were seeded into 96-well plates (A549 cells: 2×10^4 cells/well/100 ul media) abd incubated overnight. The next day, 200 nl compound were added into the intermediate plate with Echo (Labcyte 550) from source plate containing a 3-fold serial dilution from top concentration of 1 mM. The culture medium was changed with 80 ul of fresh medium and 80 ul of 2× compound solution was added into the well to make a final concentration of 1000 nM, 333.3 nM, 111.1 nM, 37.04 nM, 12.35 nM, 4.115 nM, 1.372 nM, 0.457 nM, 0.152 nM and 0 nM (DMSO). The wells were mixed and then incubated for 24 hours. The media was aspirated from the cultures and 60 ul pre-chilled PIPA lysis buffer (Boston BioProducts BP-115D) with protease/phosphatase inhibitor (Roche 05892791001/Roche 04906837001) was added into the well to lyze the cells for 20 minutes at 4° C. The MSD plate (L15XA) was coated with 40 ul cell lysate and incubated at 4° C. overnight. The next day, the plate was washed three times with TBST (CST #9997S), 150 ul/well. The MSD plates was blocked with 150 ul blocking buffer per well and shaked for 1 hr at RT, 600 rpm. The blocking buffer was 3% Blocker A (MSD, R93BA-4) in TBST. The MSD plate was washed three times with 150 ul/well of TBST and 25 ul/well of detection antibody (Rabbit anti-SMARCA2/BRM antibody, 100 μg/ml, ab223735) was added at final concentration of 1 ug/ml diluted in 1% Blocking buffer and shaken for 1 hour at RT, 600 rpm. The MSD plate was washed three times with 150 ul/well of TBST and 25 ul/well of SULFO-TAG anti-rabbit antibody (MSD, R32AB-1) was added at final concentration of 1 ug/ml diluted in 1% Blocking buffer and shaken for 1 hour at RT, 600 rpm. The MSD plate was washed three times with 150 ul/well of TBST and 150 ul/well of 2×MSD reading buffer diluted from 4× (MSD, R92TC-2) with water was added. Lastly, the MSD instrument was read.
(§1) The letter codes for SMARCA2 degradation potency (DC50) include: A (<100 nM), B (100-500 nM), C (501-1000 nM), and D (>1000 nM). The letter codes for the percentage of SMARCA2 degradation after 24 hours (Dmax %) include: A (>90% degradation), B (>70-90% degradation), C (50-70% degradation), and D (<50% degradation).

SMARCA2 [2] = molecular target: T1, SMARCA2; assay: MSD SMARCA2 degradation in NCI-H1299 cell line (24 h); conditions: for SMARCA2 MSD H1299 degradation 24 h: Dmax %: NCI-H1299 cells; for DC50: read-out: SMARCA2 MSD H1299 degradation 24 h: External Abs-DC50, NCI-H1299 cells
Protocol: Example 32. MSD SMARCA2 Degradation in […] Cell Line
Cell Culture: Cells were cultured in exponential growth phase.
Compound Preparation and Treatment: NCI-H1299 cells were seeded into the 96-well plate at 4.0*10^4 cells per 100 ul per well. Incubate the plate in the incubator overnight. The next day, compounds were diluted to designed stock concentration by TECAN, then perform a 3 fold, 9-point dilution via transferring 15 uL compound into 30 μL DMSO using Apricot. 200 nL diluted compound from compound source plate were transferred into the 96-intermediate plate as designated by using Echo550, followed with 100 ul culture medium to make the 2× compound solution. Cell plate were changed with 80 ul of fresh culture medium and 80 ul of 2× compound solution was added into the well to achieve the final designed concentration. Cell plate was then shaken at 720 rpm for 5 min and incubated for 24 hours in the incubator.
Sample Preparation: Media was aspirated from the cultures and the plate was washed with PBS twice. 60 ul of pre-chilled PIPA lysis buffer (Boston BioProducts BP-115D) with protease inhibitor were directly added into the well to lyze the cells for 20 minutes at 4° C. Cell lysates were collected.
MSD Procedure: The MSD plate was coated with 40 ul cell lysate and incubated at 4° C. overnight. The next day, the MSD coated bare plate was washed 3 times with 150 ul 1×TBST per well, blocked with 150 ul of blocking buffer per well, and shaken for 1 hour at RT, 600 rpm. Blocking buffer was 3% Blocker A in TBST. MSD plate was then washed 3 times with 150 ul 1×TBST per well and Primary Detection antibody (Rabbit anti-SMARCA2/BRM antibody, 100 μg/ml, ab223735) was added to a final [conc.]: 0.3 ug/ml, 25 ul/well and shaken for 1 hour at RT, 600 rpm. Antibody was prepared in Antibody Detection buffer (1% Blocker A in 1×TBST). The MSD plate was then washed 3 times with 150 ul 1×TBST per well. Secondary Detection antibody (SULFO-TAG anti-species antibody) was then added to a final [conc.]: 1 ug/ml, 25 ul/well, and shaken for 1 hour at RT, 600 rpm. Antibodies were prepared in Antibody Detection buffer (1% Blocker A in 1×TBST). MSD plate was washed 3 times with 150 ul 1×TBST per well and 2×MSD reading buffer was added, 150 ul per well, and diluted from 4× with water. MSD instrument was then read.
Data Analysis: The percentage of relative level of SMARCA2 level was calculated following equation below.
LC: A2780, SMARCA2 negative cells. HC: NCI-H1299 cells treated with DMSO.
The letter codes for SMARCA2 degradation potency (DC50) include: A (<100 nM), B (100-500 nM), C (501-1000 nM), and D (>1000 nM). […]

SMARCA4 = SMARCA4 (Homo sapiens, UniProt P51532); assay: SMARCA4 Western blot MV4-11 degradation; conditions: for SMARCA4 WB MV411 degradation 24 h: Average Dmax %: MV4-11 cells; for DC50: read-out: SMARCA4 WB MV411 degradation 24 h: Average external-Abs DC50, MV4-11 cells
Protocol: Cells were seeded into 6-well plates (MV4-11: 4×10^6 cells/well/1 ml) and 1 ml of 2× compound solution was added into the well to make the final concentration and the plates were mixed well and incubated for 24 hours (No cytotoxicity was observed). The cell were collected with media and spun at 3000 rpm for 5 minutes. The supernatant was aspirated and the well and the cells were washed with cold PBS once and combined for centrifugation again; the supernatant aspirated again. 200 ul pre-chilled RIPAlysis buffer (Boston BioProducts BP-115D) with protease/phosphatase inhibitor (Roche 05892791001/Roche 04906837001) was directly added into the tube to lyze the cells for 20 minutes on ice. The cell lysate were collected into EP tubes and spun at 13000 rpm for 20 minutes and 72 ul supernatant was transferred to a fresh EP tube containing 18 ul of 5× loading buffer (Beyotime Bio P0015) to make the loading samples. The samples were heated to 100° C. for 10 minutes and cooled to RT and microcentrifuged. 20 ul of samples were loaded onto SDS-PAGE gel (Novex, WG1402BOX) and the gel was run at 80 V for 20 minutes and 120 V for 1.5 hours. The samples were electrotransfer to a NC membrane using wet-transfer method with 250 mA for 2.5 hours. The membrane was blocked with LICOR blocking buffer (LI-COR, 927-50000) for 1 hour. The membrane was washed three times with TBST (CST #9997S), 5 minutes each. Incubation was performed with primary antibody prepared in blocking buffer with 0.1% Tween-20 (Solarbio, P8220) at 4° C. overnight (Anti-SMARCA2/BRM antibody (ab15597) 1:500; Anti-BRG1 antibody [EPR3912] (ab108318) 1:1000; Rabbit anti-Baf180 antibody [EPR15860] (Abcam, ab196022) 1:1000; mouse anti-beta-Actin (8H10D10) (CST #3700) 1:10000). The membrane was washed three times with TBST, 5 minutes each. Incubation with secondary antibody was performed for 1 hour at RT (anti-rabbit IgG (Licor, 926-32211) 1:5000; anti-mouse IgG (LI-COR, 926-68070) 1:5000). The membrane was washed three times with TBST, 5 minutes each and lastly the LiCOR was read.
as §1, with “SMARCA” for “SMARCA2”

Structure (SMILES) | SMARCA2 MSD A549 degradation 24 h: Average Dmax % (SMARCA2 [1]) | DC50 (SMARCA2 [1]) [nM] | SMARCA2 MSD H1299 degradation 24 h: Dmax % (SMARCA2 [2]) | DC50 (SMARCA2 [2]) [nM] | SMARCA4 WB MV411 degradation 24 h: Average Dmax % (SMARCA4) | DC50 (SMARCA4) [nM]
Cc1ncsc1-c1ccc(CNC(=O)[C@@H]2C[C@@H](O)CN2C(=O)[C@@H](NC(=O)CCCN2CCC[C@H](Cn3cc(-c4cc(-c5ccccc5O)nnc4N)cn3)C2)C(C)(C)C)cc1 | D (D (<50% degradation)) | > 1000 | – | – | – | –
Cc1ncsc1-c1ccc(CNC(=O)[C@@H]2C[C@@H](O)CN2C(=O)[C@@H](NC(=O)CCN2CCCC(n3cc(-c4cc(-c5ccccc5O)nnc4N)cn3)C2)C(C)(C)C)cc1 (some centres unmarked) | D (D (<50% degradation)) | > 1000 | – | – | – | –
Cc1ncsc1-c1ccc(CNC(=O)[C@@H]2C[C@@H](O)CN2C(=O)[C@@H](NC(=O)CN2CCC[C@H](Cn3cc(-c4cc(-c5ccccc5O)nnc4N)cn3)C2)C(C)(C)C)cc1 | D (D (<50% degradation)) | > 1000 | – | – | – | –
Cc1ncsc1-c1ccc(CNC(=O)[C@@H]2C[C@@H](O)CN2C(=O)[C@@H](NC(=O)C2CCC(CN(C)C(=O)c3cnc(N4C5CCC4CN(c4cc(-c6ccccc6O)nnc4N)C5)nc3)CC2)C(C)(C)C)cc1 (some centres unmarked) | C (C (50-70% degradation)) | 501 to 1000 | – | – | – | –
Cc1ncsc1-c1ccc(CNC(=O)[C@@H]2C[C@@H](O)CN2C(=O)[C@@H](NC(=O)CCCCN2CCCC(n3cc(-c4cc(-c5ccccc5O)nnc4N)cn3)C2)C(C)(C)C)cc1 (some centres unmarked) | – | – | D (D (<50% degradation)) | 100 to 500 | D (D (<50% degradation)) | 100 to 500
Cc1ncsc1-c1ccc(CNC(=O)[C@@H]2C[C@@H](O)CN2C(=O)[C@@H](NC(=O)CCCN2CCC[C@@H](Cn3cc(-c4cc(-c5ccccc5O)nnc4N)cn3)C2)C(C)(C)C)cc1 | – | – | D (D (<50% degradation)) | 100 to 500 | D (D (<50% degradation)) | 100 to 500
Cc1ncsc1-c1ccc(CNC(=O)[C@@H]2C[C@@H](O)CN2C(=O)[C@@H](NC(=O)[C@H]2CC[C@@H](CN(C)Cc3cnc(N4C5CCC4CN(c4cc(-c6ccccc6O)nnc4N)C5)nc3)CC2)C(C)(C)C)cc1 | C (C (50-70% degradation)) | 501 to 1000 | – | – | C (C (50-70% degradation)) | > 1000
